{"sequences": {"note": "The chains behind the UniProt entries cited, without tags or fusion partners.", "UniProt P17931, whole entry": "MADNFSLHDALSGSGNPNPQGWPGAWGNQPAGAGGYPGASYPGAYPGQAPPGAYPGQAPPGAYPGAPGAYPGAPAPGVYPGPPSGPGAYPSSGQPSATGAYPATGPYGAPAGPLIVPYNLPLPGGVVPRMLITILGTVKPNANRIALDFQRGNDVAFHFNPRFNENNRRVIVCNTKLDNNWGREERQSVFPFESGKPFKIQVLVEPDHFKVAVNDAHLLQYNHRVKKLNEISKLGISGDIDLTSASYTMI"}, "source": "patent US10799522B2", "about": "“Compositions and methods relating to galectin detection” (Wayne State University, priority 2015, dated 2020)", "molecular_target": "galectin-3 expression on the cell membranes of cancer cell lines (Homo sapiens, UniProt P17931)", "details": "0.1 uC/ml, 30 min incubation; cell pellet/medium radioactivity concentration"}
{"smiles": "OCC1OC(SC2OC(CO)C(O)C(n3cc(-c4cccc([18F])c4)nn3)C2O)C(O)C(n2cc(-c3cccc(F)c3)nn2)C1O", "note": "[[^18F]FPTDG, 3-(3-[^18F]fluorophenyltriazolyl)-3-deoxy-3′-(3-fluorophenyltriazolyl)-3′-deoxy-1-thio-β-D-digalactopyranoside]", "values": [{"measurement": "level of binding (accumulation) of radiotracer in cancer cells vs galectin-3 expression on cellular membranes", "result": "reflects the level of galectin-3 expression on the cell membranes"}]}
